Molecules are shown by their SMILES.

Protein sequences, listed by entry. Tags and fused reporters are not part of them. Residues count along the entry.
UniProt Q13224, 27-1484 limits assumed: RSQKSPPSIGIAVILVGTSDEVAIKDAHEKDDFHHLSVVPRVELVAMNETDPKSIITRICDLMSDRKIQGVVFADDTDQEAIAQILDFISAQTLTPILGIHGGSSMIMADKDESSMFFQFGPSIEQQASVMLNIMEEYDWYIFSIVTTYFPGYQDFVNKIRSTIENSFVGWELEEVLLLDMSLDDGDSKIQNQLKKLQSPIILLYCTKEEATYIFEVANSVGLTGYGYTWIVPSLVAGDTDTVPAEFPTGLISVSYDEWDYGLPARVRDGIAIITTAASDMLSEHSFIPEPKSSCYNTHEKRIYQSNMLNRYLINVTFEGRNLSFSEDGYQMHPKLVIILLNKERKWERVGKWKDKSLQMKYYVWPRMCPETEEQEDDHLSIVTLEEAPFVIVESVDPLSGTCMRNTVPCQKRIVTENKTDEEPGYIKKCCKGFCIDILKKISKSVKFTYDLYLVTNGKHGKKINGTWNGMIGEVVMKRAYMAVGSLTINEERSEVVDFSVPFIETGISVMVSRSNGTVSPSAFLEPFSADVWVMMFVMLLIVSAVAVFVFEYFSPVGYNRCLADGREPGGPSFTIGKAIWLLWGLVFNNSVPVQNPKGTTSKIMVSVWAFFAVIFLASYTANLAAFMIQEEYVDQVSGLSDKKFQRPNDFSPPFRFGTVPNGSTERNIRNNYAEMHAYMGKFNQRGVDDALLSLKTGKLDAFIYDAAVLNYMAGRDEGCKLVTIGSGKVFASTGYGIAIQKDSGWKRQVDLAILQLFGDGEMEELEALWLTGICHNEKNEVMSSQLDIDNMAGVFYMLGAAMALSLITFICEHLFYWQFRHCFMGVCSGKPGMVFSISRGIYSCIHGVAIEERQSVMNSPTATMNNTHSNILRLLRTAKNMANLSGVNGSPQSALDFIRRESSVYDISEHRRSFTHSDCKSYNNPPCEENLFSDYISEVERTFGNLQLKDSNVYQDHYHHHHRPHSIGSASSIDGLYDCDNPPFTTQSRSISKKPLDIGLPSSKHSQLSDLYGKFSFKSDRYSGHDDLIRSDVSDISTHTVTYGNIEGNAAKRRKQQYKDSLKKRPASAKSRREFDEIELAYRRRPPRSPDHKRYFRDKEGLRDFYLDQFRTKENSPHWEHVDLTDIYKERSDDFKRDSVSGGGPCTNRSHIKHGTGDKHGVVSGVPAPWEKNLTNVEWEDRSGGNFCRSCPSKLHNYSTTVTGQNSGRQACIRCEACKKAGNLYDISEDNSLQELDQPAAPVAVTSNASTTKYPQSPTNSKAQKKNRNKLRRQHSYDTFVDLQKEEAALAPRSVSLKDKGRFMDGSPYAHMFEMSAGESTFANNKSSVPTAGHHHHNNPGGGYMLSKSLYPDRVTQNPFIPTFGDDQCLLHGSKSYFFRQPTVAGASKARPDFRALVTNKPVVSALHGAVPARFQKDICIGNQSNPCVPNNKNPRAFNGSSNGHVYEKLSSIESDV

This note sets out measurements from US8841301B2, “Selective NR2B antagonists” (Bristol-Myers Squibb Company, priority 2011, dated 2014).

The assay addresses hNR2B (Homo sapiens, UniProt Q13224). Nature of the assay: Electrophysiology NMDA receptor experiments: two electrode voltage-clamp in Xenopus laevis oocytes expressing GluN1/GluN2 subunits. Particulars: read-out: Rating (hNR2B IC50); oocytes voltage clamped at −40 mV; 50 μM glutamate, 30 μM glycine. As to the method:
Electrophysiology NMDA Receptor Experiments.
Stage V and VI oocytes were surgically removed from the ovaries of large, well-fed and healthy Xenopus laevis anesthetized with 3-amino-benzoic acid ethyl ester (3 gm/l). Clusters of isolated oocytes were incubated with 292 U/ml Worthington (Freehold, N.J.) type IV collagenase or 1.3 mg/ml collagenase (Life Technologies, Gaithersburg, Md.; 17018-029) for 2 hr in Ca^2+-free solution comprised of (in mM) 115 NaCl, 2.5 KCl, and 10 HEPES, pH 7.5, with slow agitation to remove the follicular cell layer. Oocytes were then washed in the same solution supplemented with 1.8 mM CaCl2 and maintained in Barth's solution comprised of (in mM): 88 NaCl, 1 KCl, 2.4 NaHCO3, 10 HEPES, 0.82 MgSO4, 0.33 Ca(NO3)2, and 0.91 CaCl2 and supplemented with 100 μg/ml gentamycin, 10 μg/ml streptomycin, and 10 μg/ml penicillin. Oocytes were manually defolliculated and injected within 24 hrs of isolation with 3-5 ng of human GluN1 subunit cRNA and 7-10 ng of human GluN2 cRNA subunit in a 50 nl volume, and incubated in Barth's solution at 18° C. for 2-7 d. Glass injection pipettes had tip sizes ranging from 10-20 microns, and were backfilled with mineral oil. cRNA was synthesized from linearized template cDNA for rat glutamate receptor subunits according to manufacturer specifications (Ambion).
Two electrode voltage-clamp recordings were made 2-7 days post-injection. Oocytes were placed in a dual-track plexiglass recording chamber with a single perfusion line that splits in a Y-configuration to perfuse two oocytes. Dual recordings were made at room temperature (23° C.) using two Warner OC725B two-electrode voltage clamp amplifiers, arranged as recommended by the manufacturer. Glass microelectrodes (1-10 Megaohms) were filled with 300 mM KCl (voltage electrode) or 3 M KCl (current electrode). The bath clamps communicated across silver chloride wires placed into each side of the recording chamber, both of which were assumed to be at a reference potential of 0 mV. Oocytes were perfused with a solution comprised of (in mM) 90 NaCl, 1 KCl, 10 HEPES, […] and 0.5 BaCl2; pH 7.4, adjusted by addition of NaOH. Oocytes were recorded under voltage clamp at −40 mV. Final concentrations for glutamate and glycine were 50 μM and 30 μM, respectively. Concentration-response curves for experimental compounds were obtained by applying in successive fashion maximal glutamate/glycine, followed by glutamate/glycine plus variable concentrations of experimental compounds. Dose response curves consisting of four to eight concentrations were obtained in this manner. The baseline leak current at −40 mV was measured before and after recording, and the full recording linearly corrected for any change in leak current. The level of inhibition by applied experimental compounds was expressed as a percent of the initial glutamate response, and averaged together across oocytes from multiple experiments. Results were pooled, and the average percent responses at antagonist concentrations were fit by the equation, Percent Response=(100−minimum)/(1+([conc]/IC50)^nH)+minimum where minimum is the residual percent response in saturating concentration of the experimental compounds, IC50 is the concentration of antagonist that causes half of the achievable inhibition, and nH is a slope factor describing steepness of the inhibition curve. […]
For NMDA receptor subtype selectivity experiments human GluN1/GluN2A, GluN1/GluN2C, and GluN1/GluN2D cRNAs were expressed in Xenopus laevis as described above. Here, 10 μM concentrations of the antagonist was perfused with 50 μM glutamate and 30 μM glycine onto the oocyte for two min and the remaining current in the presence of the antagonist was compared to the maximal current obtained with 50 μM glutamate and 30 μM glycine alone (defined as 100%). When IC50 determinations were made against other NMDA receptor subtypes the protocol as described above was followed. […]
As to `Cc1ccc(Nc2ncc(CCc3ccc4[nH]ncc4c3)cn2)cc1F`, the IC50 – broadly, the point on the concentration scale where inhibition reaches its midpoint – lay within 1000 to 10000 nM. `FC(F)Oc1ccc(Nc2ncc(CCc3ccc4[nH]nc(Cl)c4c3)cn2)cc1`: the IC50 was more than 10000 nM. As for `FC(F)Oc1ccc(Nc2ncc(C3CC3c3ccc4[nH]ncc4c3)cn2)cc1` (stereo not shown), the IC50 was in the range of 1000 to 10000 nM. As for `CC(Cc1ccc2[nH]ncc2c1)c1cnc(Nc2ccc(OC(F)F)cc2)nc1` (stereo not shown), the 50% inhibitory concentration (IC50) lay in the range of 1000 to 10000 nM.

As to `Cc1ccc(Nc2ncc(CCc3ccc4[nH]c(=O)ccc4c3)cn2)cc1F`, the IC50 is less than 200 nM. Turning to `O=c1[nH]c2ccc(CCc3cnc(Nc4ccc(OC(F)F)cc4)nc3)cc2o1`, the IC50 is less than 200 nM. To `CC(Cc1ccc2[nH]c(=O)ccc2c1)c1cnc(Nc2ccc(OC(F)F)cc2)nc1` (stereo not shown) belongs 201 to 1000 nM.
